From ChEMBL document CHEMBL1759897, “Discovery of non-peptide, small molecule antagonists of α9α10 nicotinic acetylcholine receptors as novel analgesics for the treatment of neuropathic and tonic inflammatory pain” (Bioorg Med Chem Lett, 2011)

Test: Ratio of IC50 for alpha9/alpha10 nAChR to IC50 for alpha7 nAChR expressed in Xenopus oocyte

c1ccc2c[n+](CCCCCc3cc(CCCCC[n+]4ccc5ccccc5c4)cc(CCCCC[n+]4ccc5ccccc5c4)c3)ccc2c1
Ratio IC50: 35

c1ccc(-c2ccc[n+](CCCCCc3cc(CCCCC[n+]4cccc(-c5ccccc5)c4)cc(CCCCC[n+]4cccc(-c5ccccc5)c4)c3)c2)cc1
Ratio IC50: 25
